By IC50 is commonly meant the midpoint of a concentration-inhibition curve.

Amino acid sequences for entries named in this document (tags omitted).
UniProt O08914, whole entry: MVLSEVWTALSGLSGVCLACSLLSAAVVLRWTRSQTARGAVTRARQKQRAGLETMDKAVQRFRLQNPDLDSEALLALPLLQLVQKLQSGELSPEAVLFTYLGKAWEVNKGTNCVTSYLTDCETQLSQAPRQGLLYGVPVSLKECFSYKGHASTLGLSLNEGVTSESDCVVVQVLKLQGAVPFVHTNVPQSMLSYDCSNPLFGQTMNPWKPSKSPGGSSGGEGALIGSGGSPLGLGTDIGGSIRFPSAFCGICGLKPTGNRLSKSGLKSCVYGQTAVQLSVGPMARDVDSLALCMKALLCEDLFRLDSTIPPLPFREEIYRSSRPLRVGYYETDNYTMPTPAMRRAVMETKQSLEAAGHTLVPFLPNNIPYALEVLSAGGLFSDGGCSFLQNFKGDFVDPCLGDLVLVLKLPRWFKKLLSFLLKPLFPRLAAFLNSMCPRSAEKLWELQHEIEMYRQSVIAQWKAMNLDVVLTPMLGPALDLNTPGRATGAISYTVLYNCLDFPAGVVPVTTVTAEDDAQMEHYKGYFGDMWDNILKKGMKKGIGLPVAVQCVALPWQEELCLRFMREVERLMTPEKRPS

IC50 data for 1 compound are collected here from ChEMBL document CHEMBL1151798, “Monoacylglycerol lipase regulates 2-arachidonoylglycerol action and arachidonic acid levels” (Bioorg Med Chem Lett, 2008).

The target of this test is Fatty-acid amide hydrolase 1 (Mus musculus, UniProt O08914). Briefly: Inhibition of FAAH-mediated [3H]anandamide hydrolysis in mouse brain. The format is tissue-based.

As to `CCOP(=O)(OCC)Oc1nc(Cl)c(Cl)cc1Cl` [CHLORPHRIFOS OXON], half-maximal inhibition (IC50) was put at 40 nM.
